Measured values from ChEMBL document CHEMBL5550106, “Recent advances in the exploration of oxazolidinone scaffolds from compound development to antibacterial agents and other bioactivities” (Eur J Med Chem, 2024).

Sequences of proteins named here, by UniProt entry; tags and fusion partners are left off. Residues count along the entry.
UniProt P00742, 41-179 limits assumed: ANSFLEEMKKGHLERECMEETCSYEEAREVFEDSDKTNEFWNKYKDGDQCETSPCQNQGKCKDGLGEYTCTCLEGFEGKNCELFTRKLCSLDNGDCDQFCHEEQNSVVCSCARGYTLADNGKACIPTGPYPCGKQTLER
UniProt P00742, 235-488 limits assumed: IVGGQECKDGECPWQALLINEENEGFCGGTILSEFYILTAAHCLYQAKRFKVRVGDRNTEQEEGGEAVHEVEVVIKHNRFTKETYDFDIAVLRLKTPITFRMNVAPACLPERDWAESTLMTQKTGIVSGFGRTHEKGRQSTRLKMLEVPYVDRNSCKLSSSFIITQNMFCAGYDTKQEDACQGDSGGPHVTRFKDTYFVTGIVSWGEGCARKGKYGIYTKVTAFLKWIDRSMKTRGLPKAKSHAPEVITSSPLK

Biological target: Coagulation factor X (Homo sapiens, UniProt P00742)
Test: Inhibition of human factor Xa

IC50: 0.19 µM
SMILES: O=C(NC[C@@H]1OC(=O)N2c3ccc(N4CCCCC4=O)cc3OC[C@@H]12)c1ccc(Cl)s1
